Test results reported in patent publication US12466818B2, “Thienyl-aniline compounds for treatment of dermal disorders” (NFlection Therapeutics, Inc., priority 2018, dated 2025).

By UniProt entry, the sequences of proteins in these tests, tags left out.
UniProt Q02750, whole entry: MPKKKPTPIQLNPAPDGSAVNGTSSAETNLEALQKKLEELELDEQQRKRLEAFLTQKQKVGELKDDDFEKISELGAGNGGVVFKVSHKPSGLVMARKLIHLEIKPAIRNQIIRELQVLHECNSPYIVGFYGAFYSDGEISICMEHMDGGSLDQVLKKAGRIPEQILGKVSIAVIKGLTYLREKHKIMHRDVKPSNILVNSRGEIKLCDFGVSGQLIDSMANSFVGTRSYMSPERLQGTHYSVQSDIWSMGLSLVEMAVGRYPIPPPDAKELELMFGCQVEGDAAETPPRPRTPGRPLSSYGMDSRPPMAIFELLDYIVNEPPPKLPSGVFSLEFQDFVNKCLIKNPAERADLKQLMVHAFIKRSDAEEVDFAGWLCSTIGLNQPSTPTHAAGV

Biological target: MEK1 (Homo sapiens (Human), UniProt Q02750)
Experiment: Assay 1: biochemical MEK IC50 assay (Example 36, 33P-ATP filter-binding)
Details: read-out: Assay 1: biochemical MEK IC50; Example 36, recombinant human MEK1, substrate ERK2 (K52R)
Description: The following procedure can be used to measure biochemical activity. MEK1 inhibitory activity of compounds were tested using the following procedure. […] Nat Biotechnol. 2011, 29(11), 1039-45.
• Reaction buffer: 20 mM Hepes (pH 7.5), 10 mM MgCl2, 1 mM EGTA, 0.02% Brij35, 0.02 mg/mL BSA, 0.1 mM Na3VO4, 2 mM DTT, 1% DMSO • Enzyme: MEK1, Invitrogen cat #PV3303 • N-terminal His-tagged recombinant human full length protein, expressed in insect cells. Activated in vitro by RAFT. MW=49.2 kDa, GenBank Accession No. NP_002746. • Substrate: 5 μM ERK2 (K52R), • Kinase-dead mutant, (GenBank Accession No. NM_0011949), aa2-358 with N-terminal His6 tag, MW=43.63 kDa, expressed in E. coli.
The substrate was prepared in freshly prepared Reaction Buffer. The kinase was delivered into the substrate solution and gently mixed. Test compounds were delivered in 100% DMSO into the kinase reaction mixture by Acoustic technology (Echo550; nanolitter range), and incubated for 20 min at room temperature. ^33P-ATP was delivered into the reaction mixture to initiate the reaction. The reaction mixture was incubated for 2 hours at room temperature. Kinase activity was detected by P81 filter-binding method.
Assay 1 is the biochemical MEK IC50 (nM) assay as described in Example 36. […]

CC(=O)c1sc(Nc2ccc(I)cc2F)c(C(=O)NOCC2COC2)c1C
IC50: 1 to 5 µM
